Test results published in patent publication US20260131009A1, “BIFUNCTIONAL PI3K-ALPHA INHIBITORS AND USES THEREOF” (Relay Therapeutics, Inc., priority 2021, published 2026).

Amino acid sequences for entries named in this document (tags omitted).
UniProt P42336, whole entry H1047R: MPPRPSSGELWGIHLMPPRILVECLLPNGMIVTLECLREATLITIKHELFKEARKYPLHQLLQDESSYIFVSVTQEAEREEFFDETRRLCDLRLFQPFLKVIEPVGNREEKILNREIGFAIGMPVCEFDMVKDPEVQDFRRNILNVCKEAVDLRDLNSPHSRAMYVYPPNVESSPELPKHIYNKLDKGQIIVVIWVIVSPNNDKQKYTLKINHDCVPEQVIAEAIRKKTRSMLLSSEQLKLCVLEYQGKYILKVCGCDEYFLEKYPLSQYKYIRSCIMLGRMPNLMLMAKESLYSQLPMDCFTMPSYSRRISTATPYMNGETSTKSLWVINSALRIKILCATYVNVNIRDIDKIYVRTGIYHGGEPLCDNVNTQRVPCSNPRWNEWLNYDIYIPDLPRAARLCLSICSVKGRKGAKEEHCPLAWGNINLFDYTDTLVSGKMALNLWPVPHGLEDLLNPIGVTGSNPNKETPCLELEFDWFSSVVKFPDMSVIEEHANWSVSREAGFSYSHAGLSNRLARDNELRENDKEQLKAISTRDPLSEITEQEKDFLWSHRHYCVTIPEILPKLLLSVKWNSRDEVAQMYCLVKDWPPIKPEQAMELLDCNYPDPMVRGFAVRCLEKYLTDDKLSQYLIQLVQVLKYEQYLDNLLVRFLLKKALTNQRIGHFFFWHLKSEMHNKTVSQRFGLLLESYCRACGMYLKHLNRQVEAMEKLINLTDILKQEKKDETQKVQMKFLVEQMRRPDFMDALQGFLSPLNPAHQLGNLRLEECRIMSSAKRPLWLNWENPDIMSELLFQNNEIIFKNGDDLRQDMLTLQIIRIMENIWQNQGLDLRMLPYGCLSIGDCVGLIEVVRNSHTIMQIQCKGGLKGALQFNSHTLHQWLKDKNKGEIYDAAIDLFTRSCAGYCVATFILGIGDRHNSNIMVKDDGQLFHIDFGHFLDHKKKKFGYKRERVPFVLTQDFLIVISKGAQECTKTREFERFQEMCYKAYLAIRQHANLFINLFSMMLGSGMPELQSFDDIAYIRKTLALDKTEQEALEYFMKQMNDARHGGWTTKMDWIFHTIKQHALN
UniProt P27986, whole entry partner: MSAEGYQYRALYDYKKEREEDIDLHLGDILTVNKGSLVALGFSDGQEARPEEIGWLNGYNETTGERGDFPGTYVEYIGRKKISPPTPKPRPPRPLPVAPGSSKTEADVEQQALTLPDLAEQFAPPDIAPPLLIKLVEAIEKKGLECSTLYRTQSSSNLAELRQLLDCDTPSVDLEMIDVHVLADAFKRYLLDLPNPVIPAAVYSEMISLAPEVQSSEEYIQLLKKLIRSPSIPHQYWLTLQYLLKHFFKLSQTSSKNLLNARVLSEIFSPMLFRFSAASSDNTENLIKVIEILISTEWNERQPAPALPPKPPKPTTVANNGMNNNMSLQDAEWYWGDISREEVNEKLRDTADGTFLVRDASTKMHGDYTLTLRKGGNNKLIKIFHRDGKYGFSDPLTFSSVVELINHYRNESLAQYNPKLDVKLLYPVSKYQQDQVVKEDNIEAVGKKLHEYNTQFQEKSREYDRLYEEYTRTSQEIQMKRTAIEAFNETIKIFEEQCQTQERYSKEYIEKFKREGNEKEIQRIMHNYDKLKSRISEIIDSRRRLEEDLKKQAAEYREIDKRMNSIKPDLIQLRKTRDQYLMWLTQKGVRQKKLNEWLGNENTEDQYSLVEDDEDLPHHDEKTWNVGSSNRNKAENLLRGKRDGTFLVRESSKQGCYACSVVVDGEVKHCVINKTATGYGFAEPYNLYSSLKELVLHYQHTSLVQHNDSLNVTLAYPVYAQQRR

System: MCF10A
Experiment: MCF10A IC50 assay
Format: cell-based
Conditions: read-out: MCF 10A IC50; class symbols; key not given
In short: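 MCF10A cells overexpressing hotspot PIK3CA mutations were seeded at 5,000 per well in supplemented DMEM/F12 and adhered overnight (37 °C, 5% CO₂). Compounds were added acoustically as 12-dose 1:3 series, in duplicate, for 2 hours. Cells were lysed 60 min, then incubated 4 hours at room temperature with CisBio phospho-AKT (Ser473) HTRF antibodies and read on an Envision 2105. IC₅₀ for AKT phosphorylation came from Genedata software and was reported as binned categories.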

Row | SMILES | IC50 [nM]
1 | Cc1ncsc1-c1ccc([C@H](C)NC(=O)[C@@H]2C[C@@H](O)CN2C(=O)[C@@H](NC(=O)CCCCCCCCCNC(=O)c2cnc(Nc3cc(F)ccc3Cl)c(NC(=O)c3csc4ccccc34)c2)C(C)(C)C)cc1 | 10000 to 36000

Molecular target: PI3Kα (Homo sapiens, UniProt P42336, H1047R)
Experiment: ADP-Glo IC50 assay
Format: biochemical
Conditions: read-out: ADP-Glo IC50; class symbols; key not given

Row | SMILES | IC50 [nM]
2 | Cc1ccccc1Nc1ncc(C(=O)NCCOCCOCCOCCOCC(=O)N[C@H](C(=O)N2C[C@H](O)C[C@H]2C(=O)NCc2ccc(-c3scnc3C)cc2)C(C)(C)C)cc1NC(=O)c1csc2ccccc12 | 1000 to 10000
3 | Cc1ccccc1Nc1ncc(C(=O)NCCOCCOCCOCCOCCOCCC(=O)NCc2ccc3c(c2)CN(C2CCC(=O)NC2=O)C3=O)cc1NC(=O)c1csc2ccccc12 (centres unmarked) | 1000 to 10000
4 | Cc1ccccc1Nc1ncc(C(=O)NCCCC(=O)NCc2ccc3c(c2)CN(C2CCC(=O)NC2=O)C3=O)cc1NC(=O)c1csc2ccccc12 (centres unmarked) | 100 to 500

Results, then the compound that gave them:

Row | IC50 [nM] | SMILES
5 | 100 to 500 | Cc1ncsc1-c1ccc([C@H](C)NC(=O)[C@@H]2C[C@@H](O)CN2C(=O)[C@@H](NC(=O)CCCCCCCCCNC(=O)c2cnc(Nc3cc(F)ccc3Cl)c(NC(=O)c3csc4ccccc34)c2)C(C)(C)C)cc1
6 | 100 to 500 | Cc1ccccc1Nc1ncc(C(=O)NCCCCCCCCNc2cccc3c2C(=O)N(C2CCC(=O)NC2=O)C3=O)cc1NC(=O)c1csc2ccccc12 (centres unmarked)
7 | 100 to 500 | Cc1cc([C@@H](C)Nc2ccccc2C(=O)O)c2oc(N3CCN(C(=O)CCNc4cccc5c4C(=O)N(C4CCC(=O)NC4=O)C5=O)CC3)cc(=O)c2c1 (some centres unmarked) [Example I-135]
8 | 100 to 500 | Cc1ccccc1Nc1ncc(C(=O)NCCCCCCNc2ccc3c(c2)C(=O)N(C2CCC(=O)NC2=O)C3=O)cc1NC(=O)c1csc2ccccc12 (centres unmarked)
